Key:
[1] = Pharmacokinetic study, intravenous administration, plasma LC-MS/MS
Excerpt: Eight healthy 8-month-old male beagles were obtained from the Chulalongkorn University Laboratory Animal Centre (CULAC), Chulalongkorn University. […] Food was provided twice a day, and water was available ad libitum. […] The animal experiments were approved by the Institutional Animal Care and Use Committee of the CULAC, Chulalongkorn University, Bangkok, Thailand (Protocol number 2073002, Approval date: February 21, 2020). All animal procedures were complied with the ethical principles and guidelines for the use of animals (National Research Council of Thailand, 2015). All animal experiments followed the ARRIVE reporting guidelines for documenting animal experiments.
(§1) One or two capsules containing the test substance were orally administered at 8:00 AM to the dogs following the experimental plan. […] The blood samples were centrifuged at 5000g for 10 min at 4 °C to collect plasma and then stored at − 80 °C until analysis. […] The volume of urine and weight of faeces were recorded and all samples were stored at − 80 °C until analysis. All dogs were reused with a washed out period of two weeks, to allow complete excretion of bioactive triterpenoids.
(§2) All biological samples (plasma, urine, and faeces) were subjected to protein precipitation to extract the major triterpenoids from the samples. Two hundred microliters of methanol with two internal standards (glycyrrhizin and glycyrrhetinic acid) was added to 50 µL of the biological sample and mixed for 10 min. Then, the sample was centrifuged at 12,000g for 10 min at 4 °C, and 10 µL of supernatant was injected into the LC–MS/MS system. Faeces samples were homogenised by adding methanol, then the mixture was centrifuged at 1500g for 10 min at 4 °C to collect the supernatant. In the case of the concentration of the biological sample exceeded the linear calibration curve; blank matrices were used to dilute before protein precipitation. For method validation, all major components in the biological sample of dog were determined and validated according to the previous reports with little modification.

[2] = Tolerability: physical appearance, body weight, haematology and blood chemistry pre-dose and 24 h post-dose
Method: as §1
To evaluate significant differences between the pre- and post-dose of the test substances to the health status of dogs, the biochemical data were compared by using Student’s t-test. PK solution software version 2.0 (Summit Research Services) was used to analyse pharmacokinetic parameters by non-compartmental analysis. Cmax and Tmax were directly determined from plasma concentration–time curves. AUC0-24 was calculated using the trapezoidal rule and extrapolated to time infinity by the equation AUC0-inf = AUC0–24 + (Clast/kel), where Clast is the last observed plasma concentration after dosing and kel is the elimination rate constant. MRT was calculated as AUMC0-inf/AUC0-inf, where AUMC0-inf is the area under the first moment concentration–time curve. Vd was equal to dose/C0, where C0 is the plasma concentration at time zero and CL was calculated as dose/AUC0-inf. […] Absolute bioavailability was calculated as (AUCp.o./DOSEp.o.)/(AUCi.v./DOSEi.v.) × 100. Relative bioavailability was calculated from (AUCCTS/DOSECTS)/(AUCECa/DOSEECa) × 100. Before performing the statistical analysis in SPSS version 22.0 (IBM Corp.), the Shapiro–Wilk test was used to determine whether the data were normally distributed. A paired Student’s t test or Wilcoxon signed-rank test was used to determine significant differences of pharmacokinetic parameters between the groups. The percent recovery of triterpenoid glycosides and triterpenic acids were calculated using the total amount of the test substance found in urine or faeces divided by the given dose. All data are expressed as the mean ± standard deviation except for Tmax and half-life, which were expressed as median (IQR). Differences were considered significant at p < 0.05.

[3] = Percent recovery of triterpenoids in urine and faeces
Method: as §1, §2
The LC–MS/MS system was set up according to a previous published method. In brief, an LCMS-8060 coupled with a triple quadrupole mass spectrometer was controlled by LabSolution software version 5.86 (Shimadzu Corp.). A Synergi Fusion-RP C18 column (Phenomenex Inc.) maintained at 40 °C was used as the stationary phase. The analysis was run using absolute methanol and 0.2% formic acid in water as the mobile phase.

[4] = Post-treatment, ASS 0.41 mg/kg i.v.

asiaticoside
maximum plasma concentration of asiaticoside (Fig. 2b) ([1]; 0.41 mg/kg asiaticoside i.v.): approximately 3000 µg/L
plasma concentration of asiaticoside 8 h after dosing ([1]; 0.41 mg/kg asiaticoside i.v., 8 h): 10 µg/L
AUC0-24 of asiaticoside ([1]; ASS 0.41 mg/kg i.v., mean ± SD): 3.207 ± 0.829 µg·h/mL
AUC0-inf of asiaticoside ([1]; ASS 0.41 mg/kg i.v., mean ± SD): 3.218 ± 0.835 µg·h/mL
CL of asiaticoside ([1]; ASS 0.41 mg/kg i.v., mean ± SD): 0.14 ± 0.04 L/h/kg
Cmax of asiaticoside ([1]; ASS 0.41 mg/kg i.v., mean ± SD): 3.63 ± 1.322 µg/mL
MRT of asiaticoside ([1]; ASS 0.41 mg/kg i.v., mean ± SD): 8.83 ± 3.31 h
Vd of asiaticoside ([1]; ASS 0.41 mg/kg i.v., mean ± SD): 0.88 ± 0.30 L/kg
Half-life of asiaticoside ([1]; ASS 0.41 mg/kg i.v., median (IQR)): 5.04 (2.32) h
measured biochemical parameters (haematology, kidney, liver functions), pre-dose versus post-dose ([2]; 24 h post-dose, all groups): no significant differences
ALT [2, 4]: 53 ± 4 U/L
AST [2, 4]: 30 ± 10 U/L
Blood urea nitrogen [2, 4]: 11.4 ± 2.1 mg/dL
Body weight [2, 4]: 11.87 ± 1.49
Creatinine [2, 4]: 0.5 ± 0.1 mg/dL
Hemoglobin [2, 4]: 12.1 ± 1.7 g/dL
Physical appearance [2, 4]: Normal
Platelet [2, 4]: 233 ± 109 x 103/µL
Red blood cell [2, 4]: 5.23 ± 0.88 x 106/µL
White blood cell [2, 4]: 10.17 ± 3.01 x 103/µL
Percent recovery of asiaticoside in feces ([3]; ASS 0.41 mg/kg i.v., 0-24 h): 24.07 ± 7.71%
Percent recovery of asiaticoside in urine ([3]; ASS 0.41 mg/kg i.v., 0-24 h): 30.27 ± 14.87%
Percent recovery of asiaticoside in feces ([3]; ASS 0.41 mg/kg i.v., 24-48 h): 6.76 ± 5.95%
excretion route of parent triterpenoid glycosides ([3]; intravenous administration): excreted via urine within 24 h

Source: PMC8861063, “Increase water solubility of Centellaasiatica extract by indigenous bioenhancers could improve oral bioavailability and disposition kinetics of triterpenoid glycosides in beagle dogs” (Scientific Reports, 2022)
